Assay results published in patent publication US10898579B2, “Conjugates of cysteine engineered antibodies” (priority 2015, dated 2021).

Columns and labels:
[1] = system: cells that express folate receptor alpha (FRα) on their cell surface; experiment: In vitro cytotoxicity on multiple FRα+ cell lines, with and without FRα block; format: cell-based
Method: The cell lines were cultured in culture medium as recommended by the cell supplier (ATCC or DSMZ). To each well of a flat bottom 96-well plate was added 1,000-2,000 cells in 100 μL of the culture medium. Conjugates were diluted into the culture medium using 3-fold dilution series and 100 μL were added per well. To determine the contribution of FRα-independent cytotoxicity, cells in some wells were pre-incubated with 2 μM huMOV19 antibody prior to the addition of conjugates (“blocked” or “+B”). Control wells containing cells and the medium but lacking the conjugates, as well as wells containing medium only, were included in each assay plate. Assays were performed in triplicate for each data point. The plates were incubated at 37° C. in a humidified 6% CO2 incubator for 5 to 6 days. Then the relative number of viable cells in each well was determined using either the Alamar Blue reagent according the manufacturer's protocol (Life Technologies) or the WST-8 based Cell Counting Kit-8 (Dojindo Molecular Technologies, Inc., Rockville, Md.). The apparent surviving fraction of cells in each well was calculated by first correcting for the medium background absorbance, and then dividing each value by the average of the values in the control wells (non-treated cells). The surviving fraction of cells was plotted against conjugate concentration in semi-log plots.

[2] = system: NCI-H2110 human NSCLC cells; experiment: In vivo efficacy, NCI-H2110 NSCLC subcutaneous xenograft; parameters: species or system SCID mice; conditions: single
From the text: SCID mice (24 animals) were inoculated with NCI-H2110 human NSCLC cells (1×10^7 cells/animal) injected subcutaneously into the right flank of the mice.
Doses are given based on D2 or D5 concentration.

[3] = Acute tolerability / MTD study, single dose; format: in vivo, female CD-1 mice; conditions: for Mean % body weight loss at nadir / Result / day of death: qd ×1; for Drug death: qd ×1, based on D5 concentration, n=8
Method: Female CD-1 mice, 7 weeks old, were received from Charles River Laboratories. Mice were housed for an acclimation period of at least 7 days upon arrival prior to study initiation.
For the MTD study, animals were randomized into groups (n=8) based on body weight. […] Administration of the drugs was carried out intravenously with a 1.0 mL syringe fitted with a 27 gauge, 2 inch needle. Body weight was measured daily for at least one week and then at least twice weekly for the remainder of the experiment. Body weights (BW) of mice were expressed as percent change in body weight from the pre-treatment body weight as follows: % BW change=[(BW post/BW pre)−1]×100 where “BW post” is weight after treatment, and “BW pre” is the starting body weight prior to treatment.
Percent body weight loss (BWL) at nadir was expressed as the mean change in body weight post treatment. Animals were sacrificed if body weight dropped more than 20% of initial at any point in the study (1). Mice were also sacrificed if (2) one or both hind legs were paralyzed, or if (3) the animal was too sick to reach food and water.

B1: huMOV19-C442-D5 (conjugate)
heavy: QVQLVQSGAEVVKPGASVKISCKASGYTFTGYFMNWVKQSPGQSLEWIGRIHPYDGDTFYNQKFQGKATLTVDKSSNTAHMELLSLTSEDFAVYYCTRYDGSRAMDYWGQGTTVTVSSASTKGPSVFPLAPSSKSTSGGTAALGCLVKDYFPEPVTVSWNSGALTSGVHTFPAVLQSSGLYSLSSVVTVPSSSLGTQTYICNVNHKPSNTKVDKKV[gap - human IgG1 Fc with changes]
light: DIVLTQSPLSLAVSLGQPAIISCKASQSVSFAGTSLMHWYHQKPGQQPRLLIYRASNLEAGVPDRFSGSGSKTDFTLTISPVEAEDAATYYCQQSREYPYTFGGGTKLEIKRTVAAPSVFIFPPSDEQLKSGTASVVCLLNNFYPREAKVQWKVDNALQSGNSQESVTEQDSKDSTYSLSSTLTLSKADYEKHKVYACEVTHQGLSSPVTKSFNRGEC
activity compared with the Lys-linked conjugate [1]: at least as active as the Lys-linked huMOV19-D2 conjugate | Regressions CR ([2]; huMOV19-C442-D5 2.6 μg/kg i.v.): 0/6 | Regressions PR ([2]; huMOV19-C442-D5 2.6 μg/kg i.v.): 0/6 | Result ([2]; huMOV19-C442-D5 2.6 μg/kg i.v.): Active | % T/C (Day 22) ([2]; huMOV19-C442-D5 2.6 μg/kg i.v., dose based on D5 concentration): 39% | Regressions CR ([2]; huMOV19-C442-D5 8.7 μg/kg i.v.): 6/6 | Regressions PR ([2]; huMOV19-C442-D5 8.7 μg/kg i.v.): 6/6 | Result ([2]; huMOV19-C442-D5 8.7 μg/kg i.v.): Highly Active | % T/C (Day 22) ([2]; huMOV19-C442-D5 8.7 μg/kg i.v., dose based on D5 concentration): 2% | Mean % body weight loss at nadir ([3]; 153 μg/kg i.v.): 1.83% | Result ([3]; 153 μg/kg i.v.): Tolerable | Drug death ([3]; 153 μg/kg i.v.): 0/8 | Mean % body weight loss at nadir ([3]; 175 μg/kg i.v.): 7.11% | Result ([3]; 175 μg/kg i.v.): MTD | day of death ([3]; 175 μg/kg i.v.): 11 days | Drug death ([3]; 175 μg/kg i.v.): 1/8 | Mean % body weight loss at nadir ([3]; 218 μg/kg i.v.): 10.32% | Result ([3]; 218 μg/kg i.v.): Intolerable | day of death ([3]; 218 μg/kg i.v.): 10 to 13 days | Drug death ([3]; 218 μg/kg i.v.): 4/8

B2: huMOV19-D2 (conjugate)
heavy: QVQLVQSGAEVVKPGASVKISCKASGYTFTGYFMNWVKQSPGQSLEWIGRIHPYDGDTFYNQKFQGKATLTVDKSSNTAHMELLSLTSEDFAVYYCTRYDGSRAMDYWGQGTTVTVSSASTKGPSVFPLAPSSKSTSGGTAALGCLVKDYFPEPVTVSWNSGALTSGVHTFPAVLQSSGLYSLSSVVTVPSSSLGTQTYICNVNHKPSNTKVDKKV[gap - human IgG1 Fc with changes]
light: DIVLTQSPLSLAVSLGQPAIISCKASQSVSFAGTSLMHWYHQKPGQQPRLLIYRASNLEAGVPDRFSGSGSKTDFTLTISPVEAEDAATYYCQQSREYPYTFGGGTKLEIKRTVAAPSVFIFPPSDEQLKSGTASVVCLLNNFYPREAKVQWKVDNALQSGNSQESVTEQDSKDSTYSLSSTLTLSKADYEKHKVYACEVTHQGLSSPVTKSFNRGEC
Regressions CR ([2]; huMOV19-D2 2.7 μg/kg i.v.): 0/6 | Regressions PR ([2]; huMOV19-D2 2.7 μg/kg i.v.): 0/6 | Result ([2]; huMOV19-D2 2.7 μg/kg i.v.): Active | % T/C (Day 22) ([2]; huMOV19-D2 2.7 μg/kg i.v., dose based on D2 concentration): 32% | Regressions CR ([2]; huMOV19-D2 8.9 μg/kg i.v.): 6/6 | Regressions PR ([2]; huMOV19-D2 8.9 μg/kg i.v.): 6/6 | Result ([2]; huMOV19-D2 8.9 μg/kg i.v.): Highly Active | % T/C (Day 22) ([2]; huMOV19-D2 8.9 μg/kg i.v., dose based on D2 concentration): 1%
